# Reference: patent publication US20110039779A1, “IGF-1R BINDING PROTEINS AND ANTAGONISTS” (priority 2007, published 2011)
# Protein sequences, listed by entry. Tags and fused reporters are not part of them. Residues count along the entry.
# UniProt P08069, 741-1367 limits assumed: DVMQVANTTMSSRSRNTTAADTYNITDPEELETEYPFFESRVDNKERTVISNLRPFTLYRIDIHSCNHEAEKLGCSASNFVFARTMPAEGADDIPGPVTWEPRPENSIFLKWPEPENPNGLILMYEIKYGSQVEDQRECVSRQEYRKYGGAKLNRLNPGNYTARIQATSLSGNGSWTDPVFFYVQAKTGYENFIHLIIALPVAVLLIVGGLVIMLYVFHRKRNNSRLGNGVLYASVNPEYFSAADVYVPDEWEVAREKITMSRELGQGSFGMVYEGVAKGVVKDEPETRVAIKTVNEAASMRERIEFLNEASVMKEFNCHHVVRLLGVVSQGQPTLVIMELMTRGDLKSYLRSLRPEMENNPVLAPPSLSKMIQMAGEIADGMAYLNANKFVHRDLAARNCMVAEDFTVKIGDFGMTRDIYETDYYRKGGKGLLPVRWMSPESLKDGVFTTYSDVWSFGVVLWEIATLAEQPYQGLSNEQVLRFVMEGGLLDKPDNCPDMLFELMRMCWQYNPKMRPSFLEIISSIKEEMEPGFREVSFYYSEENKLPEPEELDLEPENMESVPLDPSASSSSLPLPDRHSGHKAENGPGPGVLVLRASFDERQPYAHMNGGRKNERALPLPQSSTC
# UniProt P08069, 31-736 limits assumed: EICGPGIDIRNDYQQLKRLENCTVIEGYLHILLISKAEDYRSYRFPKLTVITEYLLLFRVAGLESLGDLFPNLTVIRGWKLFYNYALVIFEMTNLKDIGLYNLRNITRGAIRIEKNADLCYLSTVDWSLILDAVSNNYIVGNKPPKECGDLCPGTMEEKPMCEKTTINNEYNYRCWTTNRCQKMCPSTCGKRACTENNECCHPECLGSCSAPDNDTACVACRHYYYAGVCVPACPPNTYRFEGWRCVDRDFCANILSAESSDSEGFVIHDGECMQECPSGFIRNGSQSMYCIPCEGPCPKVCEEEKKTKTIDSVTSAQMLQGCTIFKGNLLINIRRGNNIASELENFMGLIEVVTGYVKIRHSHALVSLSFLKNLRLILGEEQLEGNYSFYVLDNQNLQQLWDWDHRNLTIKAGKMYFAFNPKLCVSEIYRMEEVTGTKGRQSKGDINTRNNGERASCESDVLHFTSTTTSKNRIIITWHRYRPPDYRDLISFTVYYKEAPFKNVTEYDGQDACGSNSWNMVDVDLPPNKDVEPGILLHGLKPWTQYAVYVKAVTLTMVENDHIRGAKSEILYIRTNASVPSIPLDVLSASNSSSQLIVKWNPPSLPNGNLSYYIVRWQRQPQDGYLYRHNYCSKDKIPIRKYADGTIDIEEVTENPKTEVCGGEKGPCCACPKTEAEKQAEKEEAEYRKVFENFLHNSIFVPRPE
# “Also recorded” adds a separate entry of the source.
# Biological target: T1, HIGF-1R (Homo sapiens, UniProt P08069)
# T1 construct: HIGF-1R was purified from a cell culture of BHK cells stably transfected with IGF-1R cDNA; made in house; host or cells: BHK cells stably transfected with IGF-1R cDNA
# Assay: IGF-1R affinity, scintillation proximity assay (SPA assay), 125I-IGF1 displacement
# Assay type: binding
# Settings: IC50 for binding used as a measure of Kd; read-out: HIGFIR Affinity (SPA-assay)
# Procedure: In certain cases, a scintillation proximity assay (SPA assay) was used to determine IGF-1R affinity. Briefly, anti-mouse SPA beads were mixed with an HIGF-1R antibody (24-31) and WGA-purified HIGF-1R from transfected cells. The binding buffer was 0.1 M Hepes, pH 7.8, 0.1 M NaCl, 10 mM MgCl2, 0.025% Tween-20, 0.5% BSA. To this mixture was added ^125I-IGF1 and a dilution series of IGF1 or the peptide to be determined.
row,Substance,Kd
1,GEHPCQLLISLCGDDCDPVNCGGGS [Peptide F436],22 µM

# Same assay, conditions: read-out: HIGFIR Affinity (SPA-assay); IC50 for binding used as a measure of Kd
row,Substance,Kd
1,AWRYPEDDLEFWLARGRGYG [Peptide F435],13 µM
2,EDDDQNWEGYEWFERQLGK [Peptide F262],2.3 µM
3,EEDDQNWEGYNWFNEQLGK [Peptide F261],2.4 µM
4,EEFFQNWEGYNWFNEQLGKEGRVDDAFYEWFERQLGE [Peptide F413],0.36 µM
5,EGRVDDAFYEWFERQLGEEEDDQNWEGYNWFNEQLGX [Peptide F411],0.29 µM
6,GRVDWLQRNANFYDWFVAELG [Peptide F426],> 20 µM
7,GSLDESFYDWFERQLGADTKSPRWGSGTREHQGARGGAPGR [Peptide F285],1.7 µM
8,GSLDESFYDWFERQLGAVVGRDGGPITRDVGGDGRRGYNV [Peptide F286],2.3 µM
9,GVDEVRAWLWCQISGLGCES [Peptide F114],0.071 µM
10,GWRYGSFFRWRFEEGTPPFH [Peptide F432],> 20 µM
11,GYSWLRDVLMEKQAQLKREGSVGRQK [Peptide F337],> 20 µM
12,PHWTSIRFWRFGPEPRWSGT [Peptide F443],> 20 µM
13,QPLRDLWSYFVGTVEGGLRGA [Peptide F427],> 20 µM
14,SQVQWRFFTPGFGAGLFRVT [Peptide F442],> 20 µM
15,TFYSGPVSLLTGTPRTNRSAWERGRGSLDDSFYDWFERQLSR [Peptide F274],1.4 µM
16,TLNPRGPWEGSRGSMDDSFYRWFERQLE [Peptide F272],1.5 µM
17,WLDQERAWLWCEISGRGCLS [Peptide F104],> 20 µM
18,pyro-QFLRFLWSYFVGTVEGGLRGA [Peptide F445],> 20 µM

# Same assay, conditions: read-out: IG-1 Displacement Binding Affinity IC50 = M; Table 12
row,Substance,IC50
1,TFYSGPVSLLTGTPRTNRSAWERGRGSLDDSFYDWFERQLSR [Peptide F274],1.4 µM
2,TLNPRGPWEGSRGSMDDSFYRWFERQLE [Peptide F272],1.5 µM

# Biological target: MCF-7S8 cells (Homo sapiens, UniProt P08069)
# Assay: cell growth/density, mitochondrial activity assay (WST-1), MCF-7S8
# Assay type: cell-based
# Settings: first value of the cell, 10 nM IGF-1; cells in words only = effect as reported; 72 hours; no unit in head (SW480 column: M)
# Procedure: For cell growth/density studies, a mitochondrial activity assay was used, as exemplified by the following. Cells (SW480, MCF-7S8) were propagated in complete medium (DME: F12, 10% FCS (SW 480) or 5% FCS (MCF-7S8, P/S)), trypsinized, and seeded in 96 well plates as 10,000 cells/well in medium with 0.5% FCS. All wells in the periphery were omitted and only filled with medium. […] All treatments are made in triplicates. […] Treatment was continued for 48 hours (SW480 cells) or 72 hours (MCF-7S8 cells) before quantification of the cell density. Media was exchanged each day. Media and peptides were diluted in DMSO. When measuring cell density, the volume of each well was adjusted to […] Pre-diluted WST-1 (1 ml+1.5 ml DME:F12) was added as 25 μL to each well including background samples. Three wells with media only served as background controls. The cells were incubated for 90 min protected against light in an incubator.
row,Substance,IC50 in MCF-7S8: in presence of IGF-1
1,Ac-VEGROLFYDLLROLLAMRRNG [Peptide F235],No effect
2,EDWLRCLGVILSGGLTELANTGCVQGE [Peptide F167],Agonistic
3,EERATPRWRGYEWFDAQVERE [Peptide F211],No effect
4,ELQGFCELLATVTGVTGLGCLDYQPIE [Peptide F202],antagonistic; also recorded: no effect
5,ENRSGELWEGYGWFNMQVRGE [Peptide F212],No effect
6,ESYGDCRDRPCGDAPNFYDWFVQQASE [Peptide F270],Agonistic; also recorded: No effect
7,SFYSCLESLVTGPAEKSRGQWEGCRK [Peptide F292],No effect

# Same assay, conditions: second value of the cell, basal level in 0.5% FCS; unit not given
row,Substance,IC50 in MCF-7S8: alone
1,Ac-VEGROLFYDLLROLLAMRRNG [Peptide F235],no effect
2,EFSGFCMGLERLSOVSLGYCGAGOGGE [Peptide F169],no effect
3,EISFRCQLFVLAGMHPCPVDVGGEGFE [Peptide F170],no effect
4,QFYGCLLDLSLGVPSFGWRRRCITA [Peptide F138],no effect
5,SFYSCLESLVTGPAEKSRGQWEGCRK [Peptide F292],no effect

# Biological target: T2, Human IGF-1R (HIGF-1R) (Homo sapiens, UniProt P08069)
# T2 construct: HIGF-1R was purified from a cell culture of BHK cells stably transfected with IGF-1R cDNA; made in house; host or cells: BHK cells stably transfected with IGF-1R cDNA
# Assay: IGF-1R affinity study, 125I-IGF-1 competition, PEG precipitation (PEG-assay)
# Assay type: binding
# Settings: read-out: HIGFIR affinity (PEG-assay)
# Procedure: IGF-1R affinity studies were generally performed as follows. […] HIGF-1R was purified from a cell culture of BHK cells stably transfected with IGF-1R cDNA. The day before harvest cells were moved to serum free conditions and before harvest the cells were rinsed with and ice cold PBS solution. The cells were solubilized in cold lysis buffer (4 ml lysis buffer/1×10^8 cells); vortexed vigorously to lysis in lysis buffer (50 mM Hepes (pH 8.0); 150 mM NaCl; 1% Triton X-100; 2 mM EDTA; 10 μg/mlaprotinin; 0.5 mM PEFABLOC (Roche)); and the lysate centrifuged at 4° C., 20000 rpm, for 15 minutes. The HIGF-1R portion was absorbed to WGA-agarose beads and subjected to chromatography purification (Pharmacia biotech No 17-0760-01) (column washed with 20× column volumes wash buffer −50 mM Hepes (pH 8.0); 150 mM NaCl; 0.1% Triton X-100; 0.5 mM PEFABLOC (Roche)). The HIGF-1R portion was then eluted with 0.5 M n-Acetyl Glycosamine (NAG), 10% Glycerol in elution buffer (50 mM Hepes (pH 8.0); 150 mM NaCl; 0.1% Triton X-100; 0.5 mM PEFABLOC (Roche); 0.5 M n-acetyl glucosamine; 10% glycerol). […] After equilibration for 2 days at 4° C., each sample (200 μl) typically was precipitated by addition of 400 μl 25% PEG 6000, centrifuged, washed with 1 ml 15% PEG 6000, and counted in a gamma-counter. In some cases, human insulin receptor (HIR) affinity for select test peptides was similarly measured.
row,Substance,Kd
1,CWARPCGDAANFYDWFVQQAS [Peptide F103],2.3 µM
2,DDDKGSLDESFYDWFERQLGTFYSCLASLLTGTPQPNRGPWERCR [Peptide F110],1 µM
3,DMGDVECEDPFYDWFACQVRDTEFDE [Peptide F115],15 µM
4,EDDDQNWEGYEWFERQLGK [Peptide F262],0.75 µM
5,EEDDQNWEGYNWFNEQLGK [Peptide F261],0.71 µM
6,EFLTRLLERLGLSWERGEAGGPYAQAE [Peptide F175],13 µM
7,ERDDQDWEGYEWFEEQVGK [Peptide F260],1.8 µM
8,EVTSAGQWEGYEWFLGALHAE [Peptide F210],> 20 µM
9,EYRQECACSVGAVGFLCGLACLARSGE [Peptide F206],16 µM
10,GVDEVRAWLWCQISGLGCES [Peptide F114],0.056 µM
11,KLHNLMFYYGLQRLVWGAGLG [Peptide F159],5 µM
12,SAAQLFFQESFYDWFLRQVAESSQPN [Peptide F162],2.1 µM
13,VEGRGLFYDLLRQLLARRQNG [Peptide F158],0.9 µM
14,VGRASGFPENFYDWFGRQLSLQSGEQ [Peptide F160],6.7 µM
15,WLDQERAWLWCEISGRGCLS [Peptide F104],> 20 µM
16,WLDQERAWLWCEISGRGCLSDDDKGSLDESFYDWFERQLG [Peptide F107],1.4 µM
